{"sequences": {"note": "Amino acid sequences for entries named in this document (tags omitted). A change or cut given only in a name is not applied to a line headed by its entry.", "UniProt Q96LD8": "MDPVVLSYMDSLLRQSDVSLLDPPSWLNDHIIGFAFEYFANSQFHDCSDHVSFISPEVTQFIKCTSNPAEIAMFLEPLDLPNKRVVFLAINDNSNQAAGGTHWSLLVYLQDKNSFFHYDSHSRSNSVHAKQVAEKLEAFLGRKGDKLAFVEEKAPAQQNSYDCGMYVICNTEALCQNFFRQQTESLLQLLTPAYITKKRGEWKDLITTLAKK"}, "source": "PubChem BioAssay AID624319", "about": "(Sanford-Burnham Center for Chemical Genomics, 2012)", "note": "This is a selection; strong and weak results do not stand in their true shares. The source made the active and inactive calls. No stated cut-off is given here; in the data, active means inhibition mostly above about 39% (no sharp cut-off); inactive means mostly below about 34%.", "data": [{"biological_target": "Sentrin-specific protease 8 (Homo sapiens) (UniProt Q96LD8)", "assay": "human SENP8 protease inhibitors, confirmation, biochemical, Nedd8 protein substrate, single concentration (AID 624319)", "details": "purified SENP8, Nedd8-AMC/pro-Nedd8 cleavage fluorescence, 30 min; at 25 µM; active compounds read high", "values": [{"smiles": "O=[N+]([O-])c1ccc(-c2cc([N+](=O)[O-])c(O)c([N+](=O)[O-])c2)cc1", "inhibition": "inactive: 29.4%"}, {"smiles": "CSc1ccc(Nc2c([N+](=O)[O-])cc([N+](=O)[O-])cc2[N+](=O)[O-])cc1", "inhibition": "inactive: 32.2%"}, {"smiles": "CN(C)C(=O)c1cc([N+](=O)[O-])cc2c1-c1c(cc([N+](=O)[O-])cc1[N+](=O)[O-])C2=O", "inhibition": "active: 54.8%"}, {"smiles": "O=c1c2cc([N+](=O)[O-])ccc2[nH]c2c([N+](=O)[O-])cc([N+](=O)[O-])cc12", "inhibition": "inactive: 20.7%"}, {"smiles": "O=[N+]([O-])c1cc([N+](=O)[O-])c(CCNc2ccccc2)c([N+](=O)[O-])c1", "inhibition": "inactive: 37.5%"}, {"smiles": "CC1CCN(C(=O)Oc2c(Cl)cc(Cl)c3cccnc23)CC1", "inhibition": "inactive: 26.8%"}]}]}
